Chains of the proteins cited; added tags and fusions are not shown.
UniProt O14763, whole entry, looked up: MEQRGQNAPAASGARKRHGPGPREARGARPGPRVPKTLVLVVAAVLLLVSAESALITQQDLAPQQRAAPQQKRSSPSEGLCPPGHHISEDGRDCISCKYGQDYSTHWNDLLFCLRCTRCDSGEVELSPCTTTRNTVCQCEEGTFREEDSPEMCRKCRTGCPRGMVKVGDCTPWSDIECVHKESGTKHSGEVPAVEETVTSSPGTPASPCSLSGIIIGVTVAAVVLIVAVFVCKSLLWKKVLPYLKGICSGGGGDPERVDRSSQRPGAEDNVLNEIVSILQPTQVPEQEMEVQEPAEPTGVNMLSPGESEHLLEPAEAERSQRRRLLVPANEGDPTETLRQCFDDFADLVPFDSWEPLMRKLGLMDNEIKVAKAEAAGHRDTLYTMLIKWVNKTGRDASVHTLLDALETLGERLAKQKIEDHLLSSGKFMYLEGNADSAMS

The list shows a part of the results, in another mix than the full data.
What follows are compounds tested against Tumor necrosis factor receptor superfamily member 10B (Homo sapiens) (UniProt O14763) (assay: caspase-8 TRAIL sensitization, hit retest, confirmation, cell-based, NB7+caspase-8, with/without TRAIL, luminescence panel (AID 651596)). Conditions: NB7 neuroblastoma + caspase-8, TRAIL sensitization, luminescence viability, mean of runs, at 10 µM, stronger effect = higher value; in the data active = activity above about 50%; inactive = the rest.
With `CCCCn1nnnc1C(c1cc2ccccc2o1)N1CCC(n2c(=O)[nH]c3ccccc32)CC1` (stereo unspecified) the activity was 30.5%.

From PubChem BioAssay AID651596 (Sanford-Burnham Center for Chemical Genomics, 2012)
